The source of these data is PubChem BioAssay AID684 (PCMD, 2007).

Sequences of proteins named here, by UniProt entry; tags and fusion partners are left off. Residues count along the entry.
UniProt P00748, 20-372 limits assumed: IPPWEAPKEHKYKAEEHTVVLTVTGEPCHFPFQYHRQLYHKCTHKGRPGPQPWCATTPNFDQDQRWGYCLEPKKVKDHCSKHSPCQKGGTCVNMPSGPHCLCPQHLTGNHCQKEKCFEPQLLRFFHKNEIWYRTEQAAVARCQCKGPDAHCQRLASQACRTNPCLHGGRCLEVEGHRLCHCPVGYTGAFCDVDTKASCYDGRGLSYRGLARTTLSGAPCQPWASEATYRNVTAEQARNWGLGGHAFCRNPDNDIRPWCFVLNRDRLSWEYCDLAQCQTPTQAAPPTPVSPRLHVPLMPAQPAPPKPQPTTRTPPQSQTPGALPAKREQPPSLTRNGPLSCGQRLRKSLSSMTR
UniProt P00748, 373-615 limits assumed: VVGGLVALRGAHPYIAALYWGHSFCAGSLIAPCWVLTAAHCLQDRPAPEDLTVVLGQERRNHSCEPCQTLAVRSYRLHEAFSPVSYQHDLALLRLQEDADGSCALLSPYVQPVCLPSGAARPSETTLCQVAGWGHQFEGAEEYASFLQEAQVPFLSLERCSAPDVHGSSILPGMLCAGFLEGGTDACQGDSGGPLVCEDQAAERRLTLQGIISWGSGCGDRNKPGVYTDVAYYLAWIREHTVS

SMILES strings stand for the structures. The list shows a part of the results, in another mix than the full data. Activity calls are given as the source filed them. Rule as the data show it: active = inhibition above about 20% (passing the limit was not always enough); inactive = the rest.

This assay addresses Coagulation factor XII (Homo sapiens) (UniProt P00748). Kind of assay: human factor XIIa inhibitors, primary screen, biochemical, pooled compound mixtures, fluorogenic substrate (AID 684).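 Also: 0% = enzyme without compound and 100% = no enzyme blank.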 The following applies: purified FXIIa, at 5 µM, hits give high values.
A word on the inhibition: it is the drop in the measured response relative to a control, in per cent. For `COc1ccccc1OP(C)(=O)Nc1ccc(C)cc1` (stereo not drawn), the inhibition is inactive: 8.72%.
`Cc1ccc(NP(C)(=O)Oc2ccccc2)c(C)c1` (stereo not drawn): the inhibition is inactive: -5.22%.
Then `CP(=S)(Nn1cnnc1)Oc1ccccc1` (stereo not drawn), with inactive: 10.2%; and `CCOP(C)(=S)SCC(=O)NC(C)C(=O)O` (stereo not drawn), with inactive: -15.1%.
Then `CP(=O)(NC(=O)Nc1ccccc1)Oc1ccccc1` (stereo not drawn), with inactive: -0.07%; and `Cc1nc2ccc3ccccc3c2s1.O=[N+]([O-])c1cc([N+](=O)[O-])c(O)c([N+](=O)[O-])c1`, with inactive: -11.9%.
Then `Cc1ccc(C)c(NP(C)(=O)Oc2ccccc2)c1` (stereo not drawn), with inactive: 7.45%.
On to `CP(=O)(Nc1ccccc1F)Oc1ccccc1` (stereo not drawn), for which the inhibition was inactive: 9.67%.
Then `CN(C)CCOC(=O)C(O)(c1ccccc1)C1CCCCC1` (stereo not drawn), with inactive: 5.82%.
The result for `Cc1ccccc1NP(C)(=O)Nc1ccccc1C` reads inactive: 1.26%; that for `CP(=O)(Nc1ccc2c(c1)OCCO2)Oc1ccccc1` (stereo not drawn), inactive: -9.66%; that for `CCOP(C)(=S)SCC(=O)NC(C)(CC)C(=O)O` (stereo not drawn), inactive: 15.7%.
On to `CP(=O)(Oc1ccccc1)N1CCOC1=O` (stereo not drawn), for which the inhibition was inactive: 1.27%.
Then `COc1ccccc1OP(C)(=O)Nc1c(C)n(C)n(-c2ccccc2)c1=O` (stereo not drawn), with inactive: 10.8%.
The result for `CCN(CC)CC(O)COC(=O)C(O)(c1ccccc1)C1CCCCC1` (stereo not drawn) reads inactive: 11.4%.
For `Cc1nc2ccc3ccccc3c2o1.O=[N+]([O-])c1cc([N+](=O)[O-])c(O)c([N+](=O)[O-])c1`, the inhibition was inactive: 5.94%.
Take `COc1ccccc1OP(C)(=O)Nc1ccc(C)c(C)c1` (stereo not drawn): the inhibition was inactive: -0.19%.
On to `CP(=O)(Nc1ccccn1)Oc1ccccc1` (stereo not drawn), for which the inhibition was inactive: 2.86%.
